37 compounds from PubChem BioAssay AID1671190 (National Center for Advancing Translational Sciences (NCATS), 2021) can be followed below.

Protein sequences, listed by entry. Tags and fused reporters are not part of them.
UniProt P18054, whole entry: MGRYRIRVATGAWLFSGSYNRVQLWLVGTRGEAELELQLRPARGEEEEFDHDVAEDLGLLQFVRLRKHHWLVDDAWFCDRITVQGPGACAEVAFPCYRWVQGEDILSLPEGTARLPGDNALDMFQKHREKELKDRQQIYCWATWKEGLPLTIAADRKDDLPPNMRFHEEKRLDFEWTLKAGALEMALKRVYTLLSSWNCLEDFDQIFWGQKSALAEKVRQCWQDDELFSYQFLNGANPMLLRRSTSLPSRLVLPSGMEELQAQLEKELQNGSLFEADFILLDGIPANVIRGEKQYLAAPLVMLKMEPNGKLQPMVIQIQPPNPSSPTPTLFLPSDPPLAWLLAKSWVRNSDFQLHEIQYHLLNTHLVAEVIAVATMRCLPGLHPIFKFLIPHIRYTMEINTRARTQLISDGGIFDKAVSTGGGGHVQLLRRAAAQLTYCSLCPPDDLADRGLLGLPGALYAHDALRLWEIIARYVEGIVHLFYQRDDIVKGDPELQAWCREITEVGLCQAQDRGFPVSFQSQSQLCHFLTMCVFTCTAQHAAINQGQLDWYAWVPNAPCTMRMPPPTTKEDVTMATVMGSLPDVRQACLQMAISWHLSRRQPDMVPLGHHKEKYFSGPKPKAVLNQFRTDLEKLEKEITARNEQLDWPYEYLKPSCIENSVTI

The entries are a selection whose mix differs from that of the whole data set. Inconclusive results are not listed. Active and inactive are the calls of the source. The call rests on the fitted dose curve; in most records, active means well fitted inhibition curve with a large enough effect; inconclusive means small, poorly fitted or top-dose-only effect, or another doubt; inactive means no such curve, though single readings can be large or run the other way.
On the % scale 0 is the no-effect control and ±100 the full control effect; potency means the concentration at half of the fitted maximal effect.

The assay deals with Polyunsaturated fatty acid lipoxygenase ALOX12 (Homo sapiens) (UniProt P18054). Briefly: Primary qHTS assay for inhibitors of human arachidonate 12S-lipoxygenase (ALOX12): Round 2. The note with it: purified 12hLO, xylenol orange hydroperoxide absorbance; series mostly up to 108 µM; activity change, negative = inhibition: at the top concentration. The text has this: Assay Provider: Theodore R. Holman Ph.D. University of California, Santa Cruz, California Human lipoxygenase 12hLO is a member of the closely related lipoxygenase family of enzymes which catalyze the site-specific oxidation of arachidonic acid to various hormone precursor molecules and as such is a candidate for drug development in a variety of disease areas, such as cancer and inflammation. Inhibition of 12hLO activity was screened by utilizing arachidonic acid as a substrate. The extent of hydroperoxide product formation was measured by a secondary chromogenic reaction in which xylenol orange (XO, Sigma-Aldrich, cat. number 39,818-7) reacts with the ferric ions produced from the reaction between the hydroperoxide and ferrous ions. The Fe (III)-XO complex is characterized with red-shifted absorbance at 560 nm. A purified preparation of human 12hLO was supplied by Dr. Holman laboratory, University of California, Santa Cruz.
PROTOCOL TABLE SEQUENCE No. (e.g., 1, 2, 3, etc.); […] (e.g., Cells, Incubation, Reagent, etc.); VALUE; DESCRIPTION 1; Enzyme; 3 uL; 150 nM 12hLO enzyme solution dispensed in 1536-well Greiner black, clear bottom plates. 2; Compound; 23 nL; compounds and controls were added. 3; Incubate; 15 min; room temperature. 4; Substrate; 1 uL; 40 uM arachidonic acid (final concentration). 5; Incubate; 30 min; room temperature. 6; Reagent; 4 uL; Fe-XO solution was added to each well. 7; Incubation; 30 min; room temperature 8; Detector; absorbance; Read 1 at 405 nm absorbance using ViewLux (Perkin-Elmer) CCD imager. 9; Detector; absorbance; Read 2 at 573 nm absorbance using ViewLux (Perkin-Elmer) CCD imager. NOTES (numbers refer to sequence above) 1; 150 nM 12hLO (final concentration) in buffer solution (25 mM Hepes, 0.01% Triton X-100, pH 7.0) was dispensed in columns 1, 2, 5-48. Column 1 is neutral (100% activity). Buffer only was dispensed in columns 3 and 4 as no enzyme negative controls. The plates were covered with metal lids with gas-exchange holes. 2; Compounds were pin transferred via a Kalypsys Pin Tool (Wako USA) in column 5-48. Control compound was transferred in column 2, titration of nordihydroguaiaretic acid (NDGA, Sigma-Aldrich, N5023) with top concentration of 20 mM in DMSO then 1:3 dilution in duplicate. Dilution factor of 23 nL into 4 uL final assay volume. 3; Covered assay plates were incubated for 15 min at room temperature. 4; Substrate was added to start the reaction; 40 uM arachidonic acid (Sigma-Aldrich, St. Louis, MO) was dispensed throughout the plate. 6; Chromogenic detection reagent solution (divalent iron/xylenol orange, Fe-XO) was added to each well: 200 uM xylenol orange, 300 uM ferrous ammonium sulfate prepared freshly in 50 mM sulfuric acid. 8, 9; Two absorbance readouts were obtained at 405 nm and at 573 nm using a ViewLux high-throughput CCD plate imager (Perkin-Elmer). The 573 to 405 (Read 2 / Read 1) absorbance ratio was used to compute reaction progress.
A general note: Quantitative high-throughput screening tests each substance at several concentrations.
As to `CP(=O)(NC(=O)Nc1ccccc1)Oc1ccccc1` (configuration not stated), the “activity change, negative = inhibition” value is inactive: -7.02% [at 57.4 µM].

As to `CCc1ccc(OP(C)(=O)N2CCN(c3ccc([N+](=O)[O-])cc3)CC2)cc1` (configuration not stated), the “activity change, negative = inhibition” value is inactive: -14.4%.

As to `Cc1cccc(C)c1OP(C)(=O)Nc1ccc(SC(F)(F)F)cc1` (configuration not stated), the “activity change, negative = inhibition” value was inactive: 10.3%.

`CP(=O)(Oc1ccccc1)OC(c1ccccc1)C(F)(F)F` (configuration not stated): the “activity change, negative = inhibition” value was inactive: -0.0579%.

For the compound `CP(=O)(Nc1ccccn1)Oc1ccc(Cl)cc1` (configuration not stated), the “activity change, negative = inhibition” value is inactive: -4.74%.

Take `CCOP(C)(=S)SCC(=O)NC(C)C(=O)O` (configuration not stated): the “activity change, negative = inhibition” value was inactive: 0%.

For the compound `CCOC(=O)c1ccc(NP(C)(=O)Oc2ccc(OC)cc2)cc1` (configuration not stated), the “activity change, negative = inhibition” value is inactive: -16.5%.

Regarding `O=[N+]([O-])c1cc([N+](=O)[O-])c(O)c([N+](=O)[O-])c1.c1ccc(Oc2ccncc2)cc1`, the Potency was active: 31.6 µM.

For the compound `COc1ccccc1OP(C)(=O)Nc1ccccc1` (configuration not stated), the “activity change, negative = inhibition” value is inactive: 0.907%.

As for `CP(=O)(Nc1ccccc1Br)Oc1ccccc1` (configuration not stated), the “activity change, negative = inhibition” value was inactive: -6.06%.

Regarding `CP(=S)(Nn1cnnc1)Oc1ccccc1` (configuration not stated), the “activity change, negative = inhibition” value was inactive: 1.82%.

For `CC(C)(C)c1ccc(OP(C)(=O)Nc2ccc(SC(F)(F)F)cc2)cc1` (configuration not stated), the “activity change, negative = inhibition” value is inactive: -27.6%.

For the compound `Cc1cccc(C)c1OP(C)(N)=O` (configuration not stated), the “activity change, negative = inhibition” value is inactive: -12.8%.

As to `O=[N+]([O-])c1ccc2c(c1)C=Nc1ccccc1O2`, the “activity change, negative = inhibition” value was inactive: -12.5%.

With `COc1ccccc1OP(C)(=O)Nc1cc(Cl)ccc1C` (configuration not stated), the “activity change, negative = inhibition” value was inactive: -6.57%.

For the compound `COc1ccc(OP(C)(=O)Nc2cccc(F)c2)cc1` (configuration not stated), the “activity change, negative = inhibition” value is inactive: 0.515%.

For `Cc1cc(C)cc(OP(C)(N)=O)c1` (configuration not stated), the “activity change, negative = inhibition” value is inactive: -1.17%.

Turning to `CCOC(=O)c1ccc(NP(C)(=O)Oc2ccccc2)cc1` (configuration not stated), the “activity change, negative = inhibition” value is inactive: 1.61%.

With `COc1ccccc1OP(C)(=O)Nc1ccc(C)cc1` (configuration not stated), the “activity change, negative = inhibition” value is inactive: -16.3%.

Consider `Cc1ccc(NP(C)(=O)Oc2ccccc2)c(C)c1` (configuration not stated), for which the “activity change, negative = inhibition” value is inactive: 3.41%.

In the case of `CCN(CC)CCCOC(=O)C(O)(c1ccccc1)c1ccccc1`, the “activity change, negative = inhibition” value is inactive: -21%.

For `Cc1cc(C)cc(OP(C)(=O)Nc2ccc(C)cc2C)c1` (configuration not stated), the “activity change, negative = inhibition” value was inactive: 2.84% [at 57.4 µM].

As to `CCOC(=O)c1ccc(NP(C)(=O)Oc2cc(C)cc(C)c2)cc1` (configuration not stated), the “activity change, negative = inhibition” value was inactive: -16.7%.

As to `COc1ccccc1OP(C)(=O)Nc1cccc(Br)c1` (configuration not stated), the “activity change, negative = inhibition” value is inactive: -7.82%.

For `Cc1cc(C)cc(OP(C)(=O)Nc2ccccn2)c1` (configuration not stated), the “activity change, negative = inhibition” value was inactive: 1.05%.

Consider `CP(=O)(Nc1cccc(Br)c1)Oc1ccccc1` (configuration not stated), for which the “activity change, negative = inhibition” value is inactive: -1.14%.

With `O=[N+]([O-])c1cccc([N+](=O)[O-])c1`, the “activity change, negative = inhibition” value is inactive: -9.59% [at 57.4 µM].

Consider `CC1=NCCc2c1[nH]c1ccccc21.O=[N+]([O-])c1cc([N+](=O)[O-])c(O)c([N+](=O)[O-])c1`, for which the “activity change, negative = inhibition” value is inactive: 10.6%.

As for `O=[N+]([O-])c1cc([N+](=O)[O-])c(Nc2nnnn2CCO)c([N+](=O)[O-])c1`, the “activity change, negative = inhibition” value was inactive: -29.3%.

Turning to `CCCOc1ccc(NP(C)(=O)Oc2ccc(Cl)cc2)cc1` (configuration not stated), the “activity change, negative = inhibition” value was inactive: 1.49%.

Consider `CP(=O)(Nc1ccc(SC(F)(F)F)cc1)Oc1ccccc1` (configuration not stated), for which the “activity change, negative = inhibition” value is inactive: -33.9%.

Regarding `COc1ccccc1OP(C)(=O)Nc1c(C)cccc1C` (configuration not stated), the “activity change, negative = inhibition” value was inactive: -0.873%.

`CN1CCCCC1COC(=O)C1(O)c2ccccc2CCc2ccccc21` (configuration not stated): the “activity change, negative = inhibition” value is inactive: -3.05%.

For the compound `O=[N+]([O-])c1cc([N+](=O)[O-])c(-c2cnn(-c3ccccc3)c2)c([N+](=O)[O-])c1`, the “activity change, negative = inhibition” value is inactive: 0%.

For `CCOP(=O)(CC)OCC`, the “activity change, negative = inhibition” value was inactive: 14.3%.

Turning to `CCOP(C)(=S)SCC(=O)NC(C)(CC)C(=O)O` (configuration not stated), the “activity change, negative = inhibition” value was inactive: -15.2%.

As for `CP(=O)(Nc1ccc(SC(F)(F)F)cc1)Oc1ccc(F)cc1` (configuration not stated), the “activity change, negative = inhibition” value was inactive: 0%.
